Laboratory results as given in patent US20050196403A1 (published 2005).

Legend:
HLA-B*5101 = HLA-B*5101 (Human); assay: competition vs 125I probe, purified HLA
HLA-B*5301 = HLA-B*5301 (Human); assay: competition vs 125I probe, purified HLA
HLA-B*5401 = HLA-B*5401 (Human); assay: competition vs 125I probe, purified HLA
HLA-A*6801 = HLA-A*6801 (human); assay: competition with 125I probe peptide, purified HLA class I
HLA-A*3101 = HLA-A*3101 (human); assay: as above
HLA-A*0301 = HLA-A*0301 (human); assay: as above

Binder	IC50 (HLA-B*5301) [µM]	IC50 (HLA-B*5401) [µM]	other results
FPALNKMF [48.0055 FPALNKMF (p53.127.F1)]	–	–	IC50 (HLA-B*5101): 18.3 µM
FPALNKMFCQL [48.0234 FPALNKMFCQL (p53.127.F1)]	7.75	–	–
FPGTRVRAI [48.0123 FPGTRVRAI (p53.152.F1)]	23.2	2.44	–
FPQPKKKPI [48.0127 FPQPKKKPI (p53)]	–	16.7	–
KVFBQLAK (B at position 4 is alpha-amino butyric acid (in place of cysteine)) [1371.18 KVFBQLAK p53.132.V2B4]	–	–	IC50 (HLA-A*6801): 8.89 µM
RVBABPGRDRK (B at positions 3 and 5 is alpha-amino butyric acid (in place of cysteine)) [1371.31 RVBABPGRDRK p53.273.B3B5K11]	–	–	IC50 (HLA-A*3101): 4.62 µM; IC50 (HLA-A*0301): 0.314 µM
